Measured values from PMC7723054.
The list shows a part of the results.

T1: LIN28A (human?, UniProt Q9H9Z2 1-209)
T1 sequence: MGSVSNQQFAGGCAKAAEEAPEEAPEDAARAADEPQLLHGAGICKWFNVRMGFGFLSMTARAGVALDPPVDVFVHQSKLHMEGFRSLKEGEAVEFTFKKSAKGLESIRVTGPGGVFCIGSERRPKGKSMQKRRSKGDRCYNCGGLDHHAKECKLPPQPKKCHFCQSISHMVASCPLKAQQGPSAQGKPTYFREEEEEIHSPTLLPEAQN

T2: CIRBP (Homo sapiens, UniProt Q14011 1-172)
T2 sequence: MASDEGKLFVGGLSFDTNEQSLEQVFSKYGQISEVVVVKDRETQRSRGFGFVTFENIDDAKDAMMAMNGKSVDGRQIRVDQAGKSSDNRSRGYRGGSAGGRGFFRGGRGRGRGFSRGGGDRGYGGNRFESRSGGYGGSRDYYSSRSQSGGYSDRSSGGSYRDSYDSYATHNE

T3: DHX36 (Homo sapiens, UniProt Q9H2U1 1-1008)
T3 sequence: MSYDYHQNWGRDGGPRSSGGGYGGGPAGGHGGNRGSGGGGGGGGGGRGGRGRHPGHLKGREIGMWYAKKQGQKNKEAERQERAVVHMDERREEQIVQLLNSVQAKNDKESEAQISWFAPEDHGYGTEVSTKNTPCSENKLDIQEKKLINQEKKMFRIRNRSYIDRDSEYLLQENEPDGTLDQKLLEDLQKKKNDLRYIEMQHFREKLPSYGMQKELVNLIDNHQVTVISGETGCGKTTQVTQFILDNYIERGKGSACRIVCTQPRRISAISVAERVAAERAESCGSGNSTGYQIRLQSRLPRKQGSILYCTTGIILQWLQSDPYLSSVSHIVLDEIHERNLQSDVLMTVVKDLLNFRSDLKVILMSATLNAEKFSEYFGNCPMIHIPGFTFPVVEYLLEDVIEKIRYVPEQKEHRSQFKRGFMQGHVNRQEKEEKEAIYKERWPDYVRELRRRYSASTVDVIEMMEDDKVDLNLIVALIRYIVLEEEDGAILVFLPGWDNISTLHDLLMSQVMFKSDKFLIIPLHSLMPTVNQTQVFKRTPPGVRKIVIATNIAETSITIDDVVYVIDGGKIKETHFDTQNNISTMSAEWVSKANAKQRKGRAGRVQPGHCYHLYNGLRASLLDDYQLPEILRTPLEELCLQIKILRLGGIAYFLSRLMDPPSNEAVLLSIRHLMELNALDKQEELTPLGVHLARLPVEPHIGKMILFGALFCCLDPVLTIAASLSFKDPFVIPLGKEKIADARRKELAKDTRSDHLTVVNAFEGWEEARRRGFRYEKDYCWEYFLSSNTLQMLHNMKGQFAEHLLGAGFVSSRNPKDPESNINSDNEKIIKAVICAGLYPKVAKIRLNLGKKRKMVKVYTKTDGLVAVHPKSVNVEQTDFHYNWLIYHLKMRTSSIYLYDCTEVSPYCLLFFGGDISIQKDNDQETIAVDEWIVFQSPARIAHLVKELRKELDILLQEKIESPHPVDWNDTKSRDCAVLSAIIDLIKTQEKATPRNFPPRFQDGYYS

B1: hsa-mir-4633 (structured_RNA)
RNA: GGGAACUGAGAUAGCGCAAGACUCGAUAGGUGUACGAAGUUUCAGCUCCUCCACAAAUGCGUGUGGAGGAGCUGAAGCUUCGUGCAC
B2: hsa-mir-6831 (structured_RNA)
RNA: GGGAAGGCAGACUGUAGCGUCUUACGGGGGUGUACGAAGUUUCAGCGGUCUGAGCCCAUGUGUGGACCUAGGUCUGCUGUUAAACUGACUGCUGAAGCUUCGUGCAC
B3: hsa-mir-1827 (structured_RNA)
RNA: GGGAUAAAUACCGGGCGGCGUGAUUCUGGGUGUACGAAGUUUCAGCUUCAGCCUAAAGCAAUGAGAAGCCUCUGAAAGGCUGAGCUGAAGCUUCGUGCAC
B4: hsa-mir-8055 (structured_RNA)
RNA: GGGAAACAGCCGAGUGUGCUGAAUCCAUGGUGUACGAAGUUUCAGCAAAUAAAAGAUGGAGUCGUUUGACGUCUUUUAACACCCUUUGCUGAAGCUUCGUGCAC
B5: hsa-mir-490 (structured_RNA)
RNA: GGGACACAUCGGUCAAUCACGAGGCAGAGGUGUACGAAGUUUCAGCGUGGGUCAAGUUUAGAGAUGCACCAACGCUGAAGCUUCGUGCAC
B6: hsa-mir-6516 (structured_RNA)
RNA: GGGAAACCGCACUGAGCGAAAUGUGACCGGUGUACGAAGUUUCAGCUGAGCAUUCUAGCAGCAGUUUGAUGAUCAGCUGAAGCUUCGUGCAC
B7: hsa-mir-8059 (structured_RNA)
RNA: GGGAACCCUGAGCGUUGGGAAGUUAAUCGGUGUACGAAGUUUCAGCAGGCUUGGCACUUGAGGGAAAGCCUGCUGAAGCUUCGUGCAC
B8: hsa-mir-4259 (structured_RNA)
RNA: GGGAAAAGCGGAGGUCACACAAGGUUUUGGUGUACGAAGUUUCAGCGGUGGGGGCUCUGAGUGGGGAAAGUGGGGGCCUAGGGGAGGUCACAGUGCUGAAGCUUCGUGCAC
B9: hsa-mir-1268a (structured_RNA)
RNA: GGGACACCUGAAGGGGAGUAGCAUACUAGGUGUACGAAGUUUCAGCGGGGCCUGUGGUCCCGCUGAAGCUUCGUGCAC
B10: hsa-mir-1302-6 (structured_RNA)
RNA: GGGAAAAGUAAGGCAGUUAAGCACGCACGGUGUACGAAGUUUCAGCCACAAUAUUUAGGACAACAAUAUUGCUGAAGCUUCGUGCAC
B11: hsa-mir-1228 (structured_RNA)
RNA: GGGAGGACAUACGGCUACAUGGAGCGUUGGUGUACGAAGUUUCAGCUGUGGUGGGUGGUGGCCUGCGGUGAGCAGGGCCCUCAGCUGAAGCUUCGUGCAC
B12: hsa-mir-1272 (structured_RNA)
RNA: GGGAGUAUCAAACUAAUCAACGACCCUCGGUGUACGAAGUUUCAGCAAACGUGCUCAGUGUCUUUAUAACAGGAAAGCCGUAAACGCUGAAGCUUCGUGCAC

target: U1A (Homo sapiens, UniProt P09012); assay: FOREST: bead pull-down of RNA structure library v1, barcode microarray; U1A/LIN28A: 20 mM HEPES pH 7.5, 80 mM KCl, 20 mM NaCl, 10% glycerol, 2 mM DTT, 0.1 ug/uL BSA, 4 C; BG4/CIRBP/DHX36: 10 mM Tris-HCl pH 7.5, 100 mM KCl (or LiCl),; high values mean tight binding

Binder	binding signal
B1	0.164 z-score
B2	0.168 z-score
B3	0.178 z-score
B4	0.158 z-score
B5	0.178 z-score
B6	0.169 z-score
B7	0.17 z-score
B8	1.82 z-score
B9	0.169 z-score
B10	1.82 z-score
B11	0.173 z-score
B12	0.162 z-score

target: T1, LIN28A; assay: as above

Binder	binding signal
B1	-0.881 z-score
B2	0.00922 z-score
B3	0.764 z-score
B4	0.573 z-score
B5	1.68 z-score
B6	-0.364 z-score
B7	0.0399 z-score
B8	2.07 z-score
B9	0.497 z-score
B10	1.56 z-score
B11	1.2 z-score
B12	0.939 z-score

target: T2, CIRBP; assay: as above

Binder	binding signal
B1	-0.0769 z-score
B2	-0.558 z-score
B3	0.103 z-score
B4	-0.38 z-score
B5	0.606 z-score
B6	-0.846 z-score
B7	0.479 z-score
B8	3.48 z-score
B9	0.345 z-score
B10	0.581 z-score
B11	0.626 z-score
B12	2.39 z-score

target: T3, DHX36; assay: as above

Binder	binding signal
B1	-0.193 z-score
B2	0.267 z-score
B3	0.652 z-score
B4	0.267 z-score
B5	-0.204 z-score
B6	-0.497 z-score
B7	-0.756 z-score
B8	5.29 z-score
B9	0.271 z-score
B10	0.767 z-score
B11	3.46 z-score
B12	0.463 z-score
